“And” between values parts separate entries of the source, which are not always exact repeats. Identical values can stand only once.
Molecular target: the molecule itself
Assay: SDS-PAGE and western blotting of cell lysates; whole-cell lysates boiled in SDS sample buffer with β-mercaptoethanol; 15% gel; VHL antibody; oligomeric state read from the band sizes

B1: monomeric p19-VHL (19-kDa monomer) (natural protein, human (endogenous in RT4P), UniProt P40337-3 1-160, looked up)
chain: MEAGRPRPVLRSVNSREPSQVIFCNRSPRVVLPVWLNFDGEPQPYPTLPPGTGRRIHSYRGHLWLFRDAGTHDGLLVNQTELFVPSLNVDGQPIFANITLPVYTLKERCLQVVRSLVKPENYRRLDIVRSLYEDLEDHPNVQKDLERLTQERIAHQRMGD
notes: Von Hippel-Lindau protein, p19 isoform (19 kDa), made from an alternative initiation codon; Identified only as a 19-kDa band on a VHL western blot; also called VHL p19 isoform; monomeric VHL; source: endogenous, RT4P lysate (also lysates of other human cancer cell lines)
stoichiometry N: 2 and 3 and 4

Source: paper PMC5447132, “RalBP1 and p19-VHL play an oncogenic role, and p30-VHL plays a tumor suppressor role during the blebbishield emergency program” (Cell Death Discovery, 2017)
